Each structure is given as a SMILES string.

By UniProt entry, the sequences of proteins in these tests, tags left out.
UniProt P23944, whole entry: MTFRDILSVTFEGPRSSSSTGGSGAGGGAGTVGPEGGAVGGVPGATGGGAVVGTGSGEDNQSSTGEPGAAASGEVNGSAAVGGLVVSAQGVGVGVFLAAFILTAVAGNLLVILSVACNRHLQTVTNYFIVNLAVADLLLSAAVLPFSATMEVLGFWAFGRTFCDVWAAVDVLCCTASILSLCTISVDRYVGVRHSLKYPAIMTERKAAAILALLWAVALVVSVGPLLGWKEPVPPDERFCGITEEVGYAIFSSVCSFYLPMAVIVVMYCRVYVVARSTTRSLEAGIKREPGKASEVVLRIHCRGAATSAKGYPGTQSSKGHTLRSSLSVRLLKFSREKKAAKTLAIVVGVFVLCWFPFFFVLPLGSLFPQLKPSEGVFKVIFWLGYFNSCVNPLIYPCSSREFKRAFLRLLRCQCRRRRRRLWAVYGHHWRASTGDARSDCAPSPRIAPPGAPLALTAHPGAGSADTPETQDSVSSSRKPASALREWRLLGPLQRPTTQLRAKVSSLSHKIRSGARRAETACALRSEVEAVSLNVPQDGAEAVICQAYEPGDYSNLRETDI

A word on the Ki: it is a dissociation constant, usually derived from enzyme kinetics or from competition with a known ligand.

Assay [1] addresses T1, Alpha-1A adrenergic receptor (Rattus norvegicus, UniProt P43140).
T1 sequence (P43140 whole entry): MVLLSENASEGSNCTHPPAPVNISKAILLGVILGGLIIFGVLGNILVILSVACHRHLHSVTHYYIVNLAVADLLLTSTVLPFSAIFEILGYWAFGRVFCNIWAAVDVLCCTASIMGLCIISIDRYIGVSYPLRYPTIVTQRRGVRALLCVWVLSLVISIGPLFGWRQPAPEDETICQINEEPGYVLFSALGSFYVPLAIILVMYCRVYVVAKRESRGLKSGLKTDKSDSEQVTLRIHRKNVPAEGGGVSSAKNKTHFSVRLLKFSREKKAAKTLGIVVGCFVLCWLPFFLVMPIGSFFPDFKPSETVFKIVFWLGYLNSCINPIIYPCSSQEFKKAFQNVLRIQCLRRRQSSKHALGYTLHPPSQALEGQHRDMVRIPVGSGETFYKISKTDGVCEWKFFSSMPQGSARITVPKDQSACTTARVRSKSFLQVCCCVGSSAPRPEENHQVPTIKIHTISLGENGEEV
Briefly: Binding affinity against native Alpha-1A adrenergic receptor from rat hippocampus pretreated with chloroethylclonidine using radioligand ([3H]prazosin) binding assay. Type of assay: tissue-based.

The target in assay [2] is Alpha-1D adrenergic receptor (Rattus norvegicus, UniProt P23944). Description: Compound was tested for binding affinity against cloned Alpha-1D adrenergic receptor from rat brain.

Consider `O=C(CCCN1CCC2(CC1)C(=O)NCN2c1ccccc1)c1ccc(F)cc1` [SPIPERONE], for which the Ki is 38 nM in assay [1] and 21.9 nM in assay [2].

The values are drawn from ChEMBL document CHEMBL1129400 (J Med Chem, 1996).
